Experiments:
HI-HeLa cells = assay: Cytotoxicity in mock-infected HI-HeLa cells (XTT, antirhinoviral assay); format: cell-based
Experimental: In the Cell Protection Assay, the ability of compounds to protect cells against HRV infection was measured by the XTT dye reduction method. This method is described in Weislow, O. S., Kiser, R., Fine, D. L., Bader, J., Shoemaker, R. H., Boyd, M. R., J. Natl. Cancer Inst. 1989, 81, 577-586, the disclosure of which is incorporated herein by reference.
HI-HeLa cells were infected with HRV-14 at a multiplicity of infection (m.o.i.) of 0.13 (virus particles/cell) or mock-infected with medium only. Infected or mock-infected cells were resuspended at 8×10^5 cells per mL and incubated with appropriate concentrations of compounds of formula I. Two days later, XTT/PMS was added to test plates, and the amount of formazan produced was quantified spectrophotometrically at 450/650 nm. […] The therapeutic index (TI) was calculated by dividing the CC50 by the EC50.
HRV stocks were propagated, and viral assays were performed in HI-HeLa cells (ATCC). Cells were grown in Minimal Essential Medium, available from Life Technologies, with 10% fetal bovine serum.

By UniProt entry, the sequences of proteins in these tests, tags left out. Residues count along the entry.
UniProt P03303, 1538-1719: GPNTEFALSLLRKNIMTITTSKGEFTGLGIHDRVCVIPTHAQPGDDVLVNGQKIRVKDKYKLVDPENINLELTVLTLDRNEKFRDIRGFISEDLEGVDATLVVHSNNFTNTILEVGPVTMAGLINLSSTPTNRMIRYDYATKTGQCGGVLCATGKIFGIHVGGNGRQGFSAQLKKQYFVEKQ

[1] = target: T1, Recombinant Rhinovirus 3C protease serotype 14 (Human rhinovirus 14, UniProt P03303); format: biochemical; conditions: RVP serotype-14; progress curves, enzyme start experiments
T1 construct: Recombinant Rhinovirus 3C proteases from serotypes 14, 16, and 2; made in house

“Ethyl-3-(CBZ-L-LeuΨ[COCH2]-D/L-Phe-L-Gln)-E-Propenoate [Compound 1 + 9 (˜1:1)]” showed a CC50 (HI-HeLa cells; line for HRV serotype 2) greater than 320 µM, a CC50 (HI-HeLa cells; line for HRV serotype 10) greater than 320 µM and a CC50 (HI-HeLa cells; line for HRV serotype 16) greater than 320 µM. For the same substance, the CC50 (HI-HeLa cells; line for HRV serotype 89) was greater than 320 µM and the kobs/I [1] was 5,100 M^−1sec^−1.

Source: patent US20040072907A1, “Antipicornaviral compounds, compositions containing them, and methods for their use” (priority 1997, published 2004)
